Measured values from patent US7601685B2, “Growth factor modified protein matrices for tissue engineering” (Eidgenossische Technische Hochschule Zurich, priority 1998, dated 2009).

Experiments:
[1] = tested on: critical size rat cranial defect; conditions: by 3 weeks; stated as reason for the early timepoint; cited from earlier work
[2] = tested on: ectopic model of bone formation; test: Ectopic bone formation, fibrin matrices implanted subcutaneously in rats; format: in vivo; conditions: fibrin matrices with delivery system, subcutaneous in rats
Experimental: The ability of a heparin-containing delivery system to deliver growth factors in an active form was tested in an ectopic model of bone formation, where fibrin matrices containing the delivery system and BMP-2 were implanted subcutaneously in rats. […] (See Example 5).
Fibrin gels were synthesized with a different bi-domain peptide with the sequence LNQEQVSPK(αA)FAKLAARLYRKA (SEQ ID NO:36). This peptide is derived from the Factor XIIIa substrate sequence for α2-plasmin inhibitor in the first domain and a mimetic of the heparin binding domain of antithrombin III in the second domain. BMP-2 is a heparin binding protein and binds to the sequence given above. Gels were polymerized in the presence of the peptide (at 1 mM), heparin and recombinant human BMP-2 in ratios of heparin to BMP-2 of 1:1 and 40:1.
Control gels were created that had equivalent amounts of the morphogenetic protein, BMP-2, but lacking the heparin and bi-domain peptide. These gels were then implanted subcutaneously into rats and were allowed to remain for two weeks.

B1: BMP-2: recombinant human BMP-2, a heparin binding protein (protein, UniProt P12643 283-396, looked up)
Bone morphogenetic protein 2: QAKHKQRKRLKSSCKRHPLYVDFSDVGWNDWIVAPPGYHAFYCHGECPFPLADHLNSTNHAIVQTLVNSVNSKIPKACCVPTELSAISMLYLDENEKVVLKNYQDMVVEGCGCR
healing effect [1]: strong healing effect | conditions for bone formation ([2]; heparin to growth factor ratio 1:1): favorable conditions for bone formation | effect on bone formation ([2]; heparin to growth factor ratios 5:1 or greater): inhibitory to bone formation
